We go through one substance from publication PMC7673538 (PLoS Biology, 2020).

In the data set the test system is HeLa R19 cells.

(S)-fluoxetine [reference compound]: the CC50 came to 21.6 ± 1.4 µM.
